Test results as given in ChEMBL document CHEMBL1649477, “Trypanothione reductase high-throughput screening campaign identifies novel classes of inhibitors with antiparasitic activity” (Antimicrob Agents Chemother, 2009).

Tested on: L6
Assay: Cytotoxicity against rat L6 cells
Assay type: cell-based

In the case of `CC(=O)OC1(C#N)CN2CCC1CC2` (stereo unspecified), the CC50 is reported as 18 µM.
